Experimental data reported in patent US8188308B2 (Kyowa Hakko Bio Co., Ltd., priority 2006, dated 2012).

conditions: average value for three measurements

Row | SMILES | Angle of repose
1 | N[C@@H](CCC(=O)N[C@@H](CS)C(=O)NCC(=O)O)C(=O)O [Commercial product A] | 56 degrees
2 | N[C@@H](CCC(=O)N[C@@H](CS)C(=O)NCC(=O)O)C(=O)O [Example 2, gamma-L-glutamyl-L-cysteinyl glycine] | 51 degrees and 52 degrees
3 | N[C@@H](CCC(=O)N[C@@H](CS)C(=O)NCC(=O)O)C(=O)O [Example 1, gamma-L-glutamyl-L-cysteinyl glycine] | 48 degrees

“And” between values parts separate entries of the source, which are not always exact repeats. Equal entries are not always repeated.
